Source: US20240228572A1, “LONG ACTING GLUCAGON RECEPTOR SELECTIVE PEPTIDES AND METHODS OF USE” (i2o Therapeutics, Inc., priority 2020, published 2024)

Experiments:
Assay in all cases: cell-based or functional assay
[1] = target: cynomolgus monkey GLP-1 receptor (GLP-1R) (cynomolgus monkey) (UniProt F8V479)
[2] = target: cynomolgus monkey Glucagon receptor (GCGR) (cynomolgus monkey)
hGIPR (human) = hGIPR (human) (UniProt P48546)
[3] = target: human GLP-1 receptor (GLP-1R) (human) (UniProt P43220)
[4] = target: human Glucagon receptor (GCGR) (human) (UniProt P47871)
[5] = target: rat GLP-1 receptor (GLP-1R) (rat) (UniProt P32301)
[6] = target: rat Glucagon receptor (GCGR) (rat) (UniProt P30082)

Exenatide (peptide) showed a pEC50, cAMP accumulation (pEC50 (-log M)) [1] of 11.4, a pEC50, cAMP accumulation (pEC50 (-log M)) [2] of under 7 and a pEC50, cAMP accumulation (pEC50 (-log M)) (hGIPR (human)) of under 9. It also gave a pEC50, cAMP accumulation (pEC50 (-log M)) [3] of 12.1, a pEC50, cAMP accumulation (pEC50 (-log M)) [4] of 8.61 and a pEC50, cAMP accumulation (pEC50 (-log M)) [5] of 11.8. It also gave a pEC50, cAMP accumulation (pEC50 (-log M)) [6] of under 7.
